One compound from PubChem BioAssay AID1021 (Emory University Molecular Libraries Screening Center, 2008) can be followed below.

The chains behind the UniProt entries cited, without tags or fusion partners.
UniProt Q07820, whole entry: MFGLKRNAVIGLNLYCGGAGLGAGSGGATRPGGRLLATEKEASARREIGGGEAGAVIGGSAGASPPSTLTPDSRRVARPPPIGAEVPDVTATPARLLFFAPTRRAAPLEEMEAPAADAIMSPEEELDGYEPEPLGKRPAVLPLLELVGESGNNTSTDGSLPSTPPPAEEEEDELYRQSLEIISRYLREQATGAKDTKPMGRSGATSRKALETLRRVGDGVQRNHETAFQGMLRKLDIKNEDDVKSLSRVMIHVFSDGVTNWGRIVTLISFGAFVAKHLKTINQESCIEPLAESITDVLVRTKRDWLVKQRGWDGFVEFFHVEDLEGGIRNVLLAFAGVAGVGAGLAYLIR

The list shows a part of the results, in another mix than the full data. Calls of active or inactive are those of the source.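 The calls were made as follows: active = compounds that cut the binding signal by more than half at the single screening dose; inactive = the rest.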

The target of the test is Induced myeloid leukemia cell differentiation protein Mcl-1 (Homo sapiens) (UniProt Q07820). Briefly: Mcl-1/Bid binding inhibitors, primary screen, biochemical, TR-FRET, 1536-well (AID 1021).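 Also: His-tagged Mcl-1 with europium anti-His antibody binding Bid BH3 peptide; 0% = Mcl-1 plus peptide wells and 100% = peptide-only wells.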 As to conditions: TR-FRET Mcl-1/Bid-Dy647 peptide binding, at 21.7 µM, hits give high values.
As to `O=[As](O)(c1ccc(O)cc1)c1ccccc1O`, the inhibition was inactive: 11.4%.
